Screening results as filed in PubChem BioAssay.
CAL PDZ FP-1: inhibitors of human CAL PDZ peptide binding | 0.92% of 300,000 active | inhibition, % at 24.9 µM | AID 602252 | Q9HD26 | purified CAL PDZ, TMR-peptide fluorescence polarization, 1 h;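 active = mean inhibition of at least 30% with at least half of replicates also reaching 30%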;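 also: 0% = DMSO neutral control and 100% = excess unlabeled competitor peptide PRC23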
UUG fidelity: alters start codon recognition fidelity in yeast; AID 602363; activity score, % at 18.7 µM; 350,000 tested, 0.13% active; S. cerevisiae UUG-firefly luciferase reporter, luminescence/redox ratio;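 active means replicate mean at a twofold rise or more, about +100% in these data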;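 further: firefly luciferase made from a UUG start codon reports start codon fidelity; reporter light over untreated wells divided by growth signal over untreated wells; some hits fall short of that in this replicate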
Vif inh: inhibitors of HIV Vif; HEK293T cells, Vif self-association by quenched fluorescence, imaging, 24 h; inhibition, % at 7.49 µM; 0.35% of 340,000 active; AID 602346; in the data active = inhibition above about 50%, passing the limit was not always enough
PglD inh: PglD (C. jejuni) enzyme inhibition; purified PglD enzyme, DTNB colorimetric CoA detection; inhibition, % at 12.5 µM; 0.098% of 360,000 active; in the data active = inhibition above about 16%, passing the limit was not always enough
ARNT TACC3 PPI: disruptors of human ARNT/TACC3 interaction. Q9Y6A5. 0.66% of 390,000 active. AID 623870. inhibition, % at 9.99 µM. AlphaScreen His-ARNT PAS-B/GST-TACC3 binding, luminescence; TACC3 fragment carries E629A point mutation;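 active = mean inhibition of replicates at least 50% and at least half of replicates each reaching 50%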;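 also: 0% = complete ARNT plus TACC3 wells and 100% = ARNT alone without TACC3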
CAL PDZ FP-2: human CAL PDZ-peptide interaction inhibition. purified CAL PDZ, TMR-peptide fluorescence polarization, 1 h. inhibition, % at 20 µM. 0.02% of 330,000 active. AID 504414;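 active = highest replicate inhibition of at least 40%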;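 also: plate controls were DMSO neutral control wells for no effect and unlabeled competitor peptide control wells for full effect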
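material = purified tagged CAL PDZ domain construct (CerCALP) | compound dosing = 20 µM, one dose | times = 1 h at RT | measured by = fluorescence polarization from S- and P-plane intensities, G-factor corrected | read-out = inhibition from polarization loss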
ARNT Alpha ctr-1: AlphaScreen artifact in ARNT/TACC3 counter-screen; AID 651705; shares compounds with ARNT TACC3 PPI; His-ARNT PASB-GST AlphaScreen artifact counter-screen, luminescence; AC50, µM (doses to about 68 µM), inactives show top-dose activity change, negative = signal decrease; 50% of 1,200 active;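 active = every separate test run was called active for a drop in luminescence, with AC50 within twice the top valid dose, actives reach about 71 µM in these data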
ARNT Alpha ctr-2: counter-screen for ARNT-TACC3 inhibitors: AlphaScreen artifacts. shares compounds with ARNT TACC3 PPI. Dual-tagged His-ARNT PASB-GST AlphaScreen artifact counter-screen. AC50, µM. 70% of 45 active. AID 720564;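 active = luminescence drop, with half-maximal potency fitted within twice the sample's top valid dose, cut at about 70 µM in these data; inactive = the rest, including signal moving the wrong way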
* marks the source's active call; other numbers are inactive results; i = inactive; . = no result; [ ] = dose if it differs, or a comment. A selection: hits, their analogues and other compounds. The true share with any hit is near 1.6%.

SMILES	CAL PDZ FP-1	UUG fidelity	Vif inh	PglD inh	ARNT TACC3 PPI	CAL PDZ FP-2	ARNT Alpha ctr-1	others
O=C(C[C@@H]1CC[C@H](NC(=O)c2ccc(F)cc2)[C@@H](CO)O1)NCCc1ccncc1	.	-12	.	2	-4	.	.
COc1ccc(C2=C(C)CC(C)(C)NC2=O)cc1OC	-1	3	12	-1	active	0	5%
O=C(c1ccc(F)cc1)N1[C@@H]2CNc3ccccc3[C@@H]2[C@@H]1CO	.	2	.	-6	-2	.	.
CCOc1ccc2c(c1)c(N=NC(=N)N)c(O)n2C	-3	0	10	-2	36*	0	-25%
C/C(=N\NC(=O)c1ccncc1)C12CC3CC(CC(C3)C1)C2	-4	.	-1	.	51*	-1	5%
O=C(NNC(=O)C12CC3CC(CC(C3)C1)C2)c1ccncc1	.	.	-2	.	-8	-1	.
O=C(O)c1ccc(Br)c(S(=O)(=O)N2CCCC2)c1	-4	-21	-6	17	60*	-3	10%
O=C(O)c1ccc(Cl)c(S(=O)(=O)N2CCCC2)c1	3	.	-5	.	-4	0	.
O=C(C[C@H]1CC[C@H]2[C@@H](COC[C@@H](O)CN2C(=O)c2ccccc2)O1)N1CCc2ccccc2C1	.	28	.	-1	-3	.	.
O=S(=O)(N[C@H]1CC[C@H](CCn2cc(-c3ccccn3)nn2)O[C@H]1CO)c1cccc(Cl)c1	.	35	.	4	63*	.	55µM*
COc1cccc(S(=O)(=O)N[C@H]2CC[C@H](CCn3cc(-c4ccccn4)nn3)O[C@H]2CO)c1	.	-1	.	0	.	.	.
O=S(=O)(N[C@@H]1CC[C@H](CCn2cc(-c3ccccn3)nn2)O[C@H]1CO)c1cccc(Cl)c1	.	-22	.	1	69*	.	34µM*
COc1ccc(Nc2cc3n(c(=O)n2)CCc2cc(OC)c(OC)cc2-3)cc1	.	-9	.	-5	63*	-1	-29%
O=C(C[C@@H]1CC[C@H]2[C@@H](COC[C@H](O)CN2S(=O)(=O)c2ccccc2F)O1)NCc1ccccc1Cl	.	15	.	2	3	.	.
CCC(=O)N(C)C[C@@H]1Oc2cc(C#CC(C)(C)O)ccc2S(=O)(=O)N([C@H](C)CO)C[C@H]1C	.	16	.	-7	-5	.	.
COc1ccc(/C(C)=N\NC(=O)CSc2nnc(C)s2)cc1	-2	-24	1	-3	39*	0	-10%
COCC(=O)N1[C@H](CO)[C@@H](c2ccccc2)[C@@H]1CN(C)C(=O)c1ccccc1	.	6	.	1	-1	.	.
COc1ccc(S(=O)(=O)N(C)C[C@@H]2OCCCC[C@H](C)Oc3ccc(NC(=O)c4ccccc4)cc3C(=O)N([C@H](C)CO)C[C@H]2C)cc1	.	-9	.	-5	21	.	.
CC(=O)N(C)C[C@H]1Oc2cc(-c3ccccc3F)ccc2S(=O)(=O)N([C@H](C)CO)C[C@@H]1C	.	-2	.	3	1	.	.
Cc1cc(NC(=O)c2cc(-c3ccccc3)on2)no1	0	-7	.	2	-4	-1	.
O=C(Nc1ccc2ccccc2n1)c1cc(-c2ccccc2)on1	.	.	.	.	.	.	3%[38 µM]
Cn1c(NC(=O)c2cc(-c3ccccc3)on2)nc2ccccc21	.	.	.	.	.	.	-9%[38 µM]
Cc1cccc(NC(=O)c2cc(-c3ccccc3)on2)n1	.	.	.	.	.	.	3%[38 µM]
O=S(=O)(N[C@H]1CC[C@H](CCn2cc(-c3cccc(F)c3)nn2)O[C@H]1CO)c1ccccc1	.	-7	.	0	-1	.	.
O=S(=O)(N[C@H]1CC[C@H](CCn2cc(-c3ccccn3)nn2)O[C@H]1CO)c1cccc(F)c1	.	-3	.	0	67*	.	43µM*

Brought forward from above: six compounds, followed by the next part.
SMILES	CAL PDZ FP-1	UUG fidelity	Vif inh	PglD inh	ARNT TACC3 PPI	CAL PDZ FP-2	ARNT Alpha ctr-1	others
Cc1cc(NC(=O)c2cc(-c3ccccc3)on2)no1	0	-7	.	2	-4	-1	.
O=C(Nc1ccc2ccccc2n1)c1cc(-c2ccccc2)on1	.	.	.	.	.	.	3%[38 µM]
Cn1c(NC(=O)c2cc(-c3ccccc3)on2)nc2ccccc21	.	.	.	.	.	.	-9%[38 µM]
Cc1cccc(NC(=O)c2cc(-c3ccccc3)on2)n1	.	.	.	.	.	.	3%[38 µM]
O=S(=O)(N[C@H]1CC[C@H](CCn2cc(-c3cccc(F)c3)nn2)O[C@H]1CO)c1ccccc1	.	-7	.	0	-1	.	.
O=S(=O)(N[C@H]1CC[C@H](CCn2cc(-c3ccccn3)nn2)O[C@H]1CO)c1cccc(F)c1	.	-3	.	0	67*	.	43µM*
Cc1cccc(S(=O)(=O)N[C@H]2CC[C@H](CCn3cc(-c4ccccn4)nn3)O[C@@H]2CO)c1	.	4	.	1	.	.	.
O=S(=O)(N[C@H]1CC[C@@H](CCn2cc(-c3ccccn3)nn2)O[C@@H]1CO)c1cccc(F)c1	.	-8	.	2	68*	.	34µM*
O=S(=O)(N[C@H]1CC[C@H](CCn2cc(-c3ccccn3)nn2)O[C@@H]1CO)c1cccc(F)c1	.	3	.	0	78*	.	34µM*
Cc1cccc(S(=O)(=O)N[C@H]2CC[C@H](CCn3cc(-c4ccccn4)nn3)O[C@H]2CO)c1	.	3	.	2	90*	.	57µM*
C[C@H](CO)N1C[C@H](C)[C@H](CN(C)S(=O)(=O)c2ccc(Cl)cc2)Oc2c(NC(=O)c3nc4ccccc4s3)cccc2C1=O	.	1	.	2	11	.	.
O=S(=O)(N[C@@H]1CC[C@@H](CCn2cc(-c3ccccn3)nn2)O[C@@H]1CO)c1cccc(F)c1	.	-8	.	-2	94*	.	47µM*
CC(C)C(NC(=O)C1(NC(=O)OCc2ccccc2)CCCC1)C(=O)O (stereo not drawn)	.	-11	-3	1	-53	-1	.
COC(=O)C1(NC(=O)CNC(=O)OCc2ccccc2)CCCC1	-2	-9	9	0	active	0	-1%
COc1ccc(S(=O)(=O)Nc2cccc3c2O[C@H](CN(C)C)[C@H](C)CN([C@@H](C)CO)C3=O)cc1	.	3	.	-4	-15	.	.
Cc1ccnc2nc(C(=O)Nc3nc(-c4ccccn4)cs3)nn12	-6	.	-2	.	66*	-1	14µM*
O=C(Nc1nc(-c2ccncc2)cs1)c1ccco1	5	-28	-8	-1	7	-2	.	ARNT Alpha ctr-2=i
c1ccc(Nc2nc(-c3ccccn3)cs2)cc1	-3	-54	3	-1	66*	0	49µM*
O=C(Nc1nc(-c2ccccn2)cs1)C12CC3CC(CC(O)(C3)C1)C2	-2	.	1	.	71*	-1	62µM*
c1ccc(Nc2nc(-c3ccncc3)cs2)cc1	-4	-15	-4	2	-2	1	.
Cc1ccc(S(=O)(=O)N[C@@H]2CC[C@H](CCNC(=O)c3ccccc3F)O[C@@H]2CO)cc1	.	.	.	8	3	.	.
CN(C)C(=O)C[C@H]1C[C@@H]2c3cc(NC(=O)NC4CCCCC4)ccc3O[C@@H]2[C@H](CO)O1	.	-5	.	0	-5	.	.
CO[C@H]1CN(C)C(=O)c2ccc(NS(C)(=O)=O)cc2OC[C@@H](C)N(C(=O)C2CCCC2)C[C@H]1C	.	8	.	-4	-8	.	.
CCC(=O)Nc1ccc2c(c1)C(=O)N(C)[C@H]1CC[C@H](CC(=O)N3CCc4ccccc4C3)O[C@H]1CO2	.	-6	.	2	-5	.	.
CC=Cc1ccc2n(c1=O)C[C@@H]1[C@@H](CO)[C@H](C(=O)Nc3nccs3)N(C(=O)CC)[C@H]21 (mixture of isomers)	.	.	.	0	7	.	.
